Measured values published in patent EP4846860A1, “DNA METHYLATION PROMOTER, ORAL COMPOSITION FOR PROMOTING DNA METHYLATION, AND USE OF COMPOUND” (dated 2026).

Legend:
BV2/shMeCP2 = assay: Test Example 1: anti-5-mC antibody fluorescent staining of MeCP2-knockdown BV2 cells; conditions: BV2/shMeCP2 cultured for 2 days in the presence of 5 µg/ml KIT-13; compared with shMeCP2 in the absence of KIT-13; FIG. 2
Procedure: In the following, a vector that expresses shRNA targeting mouse MeCP2 (NM_010788) (catalog number: TRCN0000304464, manufactured by Sigma) was used as "shMeCP2 vector". An amplification product from shMeCP2 vector was obtained by PCR to prepare a vector excluding the MeCP2-targeting sequence. The vector was designated as "shCont. vector". The PCR was carried out using a forward primer and a reverse primer for shMeCP2 vector having the base sequences of SEQ ID NO:1 and SEQ ID NO:2, respectively.
Mouse glial cell derived BV2 cells cultured in Dulbecco's Modified Eagle Medium (DMEM, manufactured by Sigma-Aldrich) supplemented with 10% fetal calf serum (FCS, manufactured by Sigma-Aldrich) were transfected with either the shMeCP2 vector or the shCont. vector. By utilization of the puromycin resistance gene contained in the vector, puromycin-resistant lines (concentration of puromycin, 1 µg/ml) were separated. The resulting cells were designated as BV2/shMeCP2 and BV2/shCont., respectively.
BV2/shMeCP2 was cultured for 2 days in DMEM (manufactured by Sigma-Aldrich) containing 10% FCS (manufactured by Sigma-Aldrich), 100 units/ml penicillin, and 100 µg/ml streptomycin (manufactured by Nacalai) in the presence of 5 µg/ml KIT-13 (shMeCP2 + KIT-13) or in the absence of KIT-13 (shMeCP2). As a control, BV2/shCont. was cultured for 2 days in the same medium in the absence of KIT-13 (shCont.). […]

TIG-107 cells = assay: Test Examples 2 and 3: anti-5-mC antibody fluorescent staining of TIG-107 cells; conditions: TIG-107 cells cultured for 4 days in the presence of 10 µg/ml compound; compared with TIG-107 in the absence of compound; FIG. 4, FIG. 5
Procedure: Cells were fixed with a 4% paraformaldehyde (PFA) solution and washed with phosphate-buffered saline (PBS). The obtained samples were treated with 2N HCl at 37°C for 15 minutes. The samples were washed with PBS, and treated with 1% Tx-100/PBS at room temperature for 2 minutes. After washing with PBS, the samples were treated with 1% bovine serum albumin (BSA). An anti-5-mC antibody (#28692, manufactured by Cell Signaling technology) was diluted 1:4000 in 1% BSA-PBS and used as a primary antibody. The primary antibody was reacted with the samples at 25°C for 2 hours. After washing the samples with PBS, the samples were reacted at room temperature for 1 hour in the dark with a solution in which Alexa Fluor 488 anti-rabbit IgG (manufactured by Invitrogen) and 3 mM DAPI were diluted 1:2000 in 1% BSA-PBS. The samples were washed with PBS and rinsed with dH2O, followed by embedding with a cover glass and observation with BZ-X810 (manufactured by Keyence).
TIG-107 cells (JCRB0532) and TIG-120 cells (JCRB0542) were obtained from the JCRB Cell Bank. TIG-107 cells were cultured for 4 days in DMEM (manufactured by Sigma-Aldrich) containing 10% FCS (manufactured by Sigma-Aldrich), 100 units/ml penicillin, and 100 µg/ml streptomycin (manufactured by Nacalai) in the presence of 10 µg/ml KIT-13 (TIG-107 + KIT-13) or in the absence of KIT-13 (TIG-107). As a control, TIG-120 cells were cultured for 4 days in the same medium in the absence of KIT-13 (TIG-120). As in Test Example 1, fluorescent staining images of the samples prepared from the cultured cells were observed.
TIG-107 cells were cultured for 4 days in DMEM (manufactured by Sigma-Aldrich) containing 10% FCS (manufactured by Sigma-Aldrich), 100 units/ml penicillin, and 100 µg/ml streptomycin (manufactured by Nacalai) in the presence of 10 µg/ml KIT-18, in the presence of 10 µg/ml KIT-24 or in the absence of these (-). As in Test Example 1, fluorescent staining images of the samples prepared from the cultured cells were observed, and anti-5-mC antibody positivity rates were determined from the fluorescent staining images.

| SMILES | fluorescence intensity derived from 5-methylcytosine (BV2/shMeCP2) | cells positive for 5-methylcytosine (anti-5-mC antibody positivity rates) (TIG-107 cells) |
| --- | --- | --- |
| CCCCC/C=C\C/C=C\C/C=C\C/C=C\CCCC(=O)O[C@H](COCCCCCCCCCCCCCCCCCC)COP(=O)(O)OCCN | significantly increased | significantly increased |
| CCCCCCCCCCCCCCCCCCOC[C@H](COP(=O)(O)OCCN)OC(=O)CCCCCCCCCCCCCCC.O=C(O)C(F)(F)F |  | significantly increased |
| CCCCCCCC/C=C\CCCCCCCC(=O)O[C@H](COCCCCCCCCCCCCCCCCCC)COP(=O)(O)OCCN.O=C(O)C(F)(F)F |  | significantly increased |
